Data reported in ChEMBL document CHEMBL5380788, “Discovery of a Potent and Orally Bioavailable Zwitterionic Series of Selective Estrogen Receptor Degrader-Antagonists” (J Med Chem, 2023).
pIC50, pKi: −log10 of the molar value. ≈ marks a conversion by molar mass, not a printed value. Calls of active or inactive are those of the source. The rule behind the calls is not given here.

Amino acid sequences for entries named in this document (tags omitted). A change or cut given only in a name is not applied to a line headed by its entry.
UniProt P03372, whole entry: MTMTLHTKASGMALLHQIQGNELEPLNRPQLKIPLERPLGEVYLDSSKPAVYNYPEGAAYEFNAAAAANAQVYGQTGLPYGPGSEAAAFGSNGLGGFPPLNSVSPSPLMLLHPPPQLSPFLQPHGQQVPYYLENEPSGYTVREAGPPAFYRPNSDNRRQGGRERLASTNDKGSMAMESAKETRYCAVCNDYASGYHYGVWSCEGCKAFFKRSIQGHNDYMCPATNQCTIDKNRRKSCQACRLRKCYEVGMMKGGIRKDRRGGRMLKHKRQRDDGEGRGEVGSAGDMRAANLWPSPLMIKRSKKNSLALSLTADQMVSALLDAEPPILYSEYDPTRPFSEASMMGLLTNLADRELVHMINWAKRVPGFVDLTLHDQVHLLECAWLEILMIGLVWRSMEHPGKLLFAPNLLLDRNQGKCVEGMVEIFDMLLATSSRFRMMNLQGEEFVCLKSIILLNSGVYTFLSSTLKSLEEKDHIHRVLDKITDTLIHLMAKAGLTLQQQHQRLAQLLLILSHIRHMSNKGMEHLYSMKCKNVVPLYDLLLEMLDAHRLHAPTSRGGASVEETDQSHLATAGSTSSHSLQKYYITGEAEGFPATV
UniProt Q12809: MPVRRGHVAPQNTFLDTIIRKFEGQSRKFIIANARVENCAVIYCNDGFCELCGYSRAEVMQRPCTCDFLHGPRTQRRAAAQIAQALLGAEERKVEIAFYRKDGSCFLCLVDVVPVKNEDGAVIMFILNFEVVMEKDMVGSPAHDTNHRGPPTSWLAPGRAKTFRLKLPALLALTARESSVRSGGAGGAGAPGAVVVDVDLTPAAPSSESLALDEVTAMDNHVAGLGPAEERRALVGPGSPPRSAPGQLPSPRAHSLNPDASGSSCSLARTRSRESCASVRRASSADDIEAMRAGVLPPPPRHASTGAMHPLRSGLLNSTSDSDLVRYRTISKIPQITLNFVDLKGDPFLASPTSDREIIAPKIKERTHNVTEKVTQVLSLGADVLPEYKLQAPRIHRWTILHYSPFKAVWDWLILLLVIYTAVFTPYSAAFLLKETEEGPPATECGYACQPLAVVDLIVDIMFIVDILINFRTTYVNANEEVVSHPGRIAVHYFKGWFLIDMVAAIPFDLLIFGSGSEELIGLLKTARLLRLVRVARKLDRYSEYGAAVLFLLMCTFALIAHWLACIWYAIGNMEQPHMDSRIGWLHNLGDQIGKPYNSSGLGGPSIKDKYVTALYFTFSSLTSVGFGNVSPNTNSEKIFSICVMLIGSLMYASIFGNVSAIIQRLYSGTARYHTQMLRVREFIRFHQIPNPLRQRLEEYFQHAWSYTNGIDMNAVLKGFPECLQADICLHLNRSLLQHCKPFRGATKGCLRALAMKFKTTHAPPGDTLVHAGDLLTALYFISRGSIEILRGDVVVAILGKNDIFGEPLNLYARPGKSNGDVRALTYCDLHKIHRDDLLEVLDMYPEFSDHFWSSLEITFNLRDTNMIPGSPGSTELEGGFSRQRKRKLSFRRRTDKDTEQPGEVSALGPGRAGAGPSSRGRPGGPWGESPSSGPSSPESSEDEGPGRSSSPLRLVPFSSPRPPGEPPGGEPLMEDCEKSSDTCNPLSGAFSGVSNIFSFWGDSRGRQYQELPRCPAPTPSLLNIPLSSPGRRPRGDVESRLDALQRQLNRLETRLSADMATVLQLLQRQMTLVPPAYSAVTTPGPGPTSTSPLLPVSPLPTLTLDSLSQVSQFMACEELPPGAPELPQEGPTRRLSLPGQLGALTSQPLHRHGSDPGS
UniProt Q92731, whole entry: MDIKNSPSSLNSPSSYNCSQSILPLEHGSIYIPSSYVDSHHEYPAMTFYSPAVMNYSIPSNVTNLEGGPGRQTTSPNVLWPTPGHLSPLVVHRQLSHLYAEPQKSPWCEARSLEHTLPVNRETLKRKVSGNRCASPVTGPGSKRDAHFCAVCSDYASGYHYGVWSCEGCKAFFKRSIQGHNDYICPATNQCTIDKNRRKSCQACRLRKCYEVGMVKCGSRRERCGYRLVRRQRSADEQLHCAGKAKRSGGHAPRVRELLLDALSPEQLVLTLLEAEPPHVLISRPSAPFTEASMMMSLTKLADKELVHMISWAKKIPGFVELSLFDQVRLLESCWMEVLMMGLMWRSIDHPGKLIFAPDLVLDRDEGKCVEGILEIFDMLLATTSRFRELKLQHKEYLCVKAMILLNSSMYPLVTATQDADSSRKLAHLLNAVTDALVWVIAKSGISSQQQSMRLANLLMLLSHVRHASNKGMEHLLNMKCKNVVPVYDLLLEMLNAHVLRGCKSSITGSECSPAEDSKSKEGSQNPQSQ

Experiments:
in vitro [1] = details: rat, hepatocytes
Estrogen receptor [2] = molecular target: T1, Estrogen receptor (Homo sapiens, UniProt P03372)
physchem [3] = details: buffer, pH 7.4
in vitro [4] = details: human, plasma
physchem [5] = details: aqueous phosphate buffer, pH 7.4
[6] = molecular target: Voltage-gated inwardly rectifying potassium channel KCNH2 (Homo sapiens, UniProt Q12809)
Breast carcinoma cell [7] = experiment: animal or person; details: Mus musculus, po, 672 h, read-out: INH
Estrogen receptor [8] = molecular target: T1, Estrogen receptor; remark: listed apart in the source
MCF7 [9] = experiment: cells; details: Homo sapiens, MCF7, 144 h, read-out: pIC50 (converted)
cells [10] = details: Homo sapiens, MCF7, read-out: pIC50 (converted)
cells [11] = details: Homo sapiens, MCF7, read-out: pIC50 (converted); remark: listed apart in the source
Urotensin-2 receptor = molecular target: T2, Urotensin-2 receptor (Homo sapiens, UniProt Q9UKP6)
T2 sequence (Q9UKP6 whole entry): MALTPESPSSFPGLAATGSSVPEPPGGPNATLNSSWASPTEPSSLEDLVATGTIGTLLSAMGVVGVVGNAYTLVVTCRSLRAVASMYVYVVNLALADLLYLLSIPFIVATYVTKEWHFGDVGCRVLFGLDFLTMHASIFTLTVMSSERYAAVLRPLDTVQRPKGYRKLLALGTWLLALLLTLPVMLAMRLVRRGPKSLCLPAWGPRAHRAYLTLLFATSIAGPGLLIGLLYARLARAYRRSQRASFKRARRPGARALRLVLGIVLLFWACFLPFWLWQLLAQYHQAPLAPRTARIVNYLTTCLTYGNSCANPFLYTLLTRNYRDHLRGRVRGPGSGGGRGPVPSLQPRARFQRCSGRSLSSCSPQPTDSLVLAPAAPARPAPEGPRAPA

Estrogen receptor beta = Estrogen receptor beta (Homo sapiens, UniProt Q92731)
Estrogen receptor [12] = molecular target: T1, Estrogen receptor; remark: listed apart in the source
[13] = test system: calcium channel, diltiazem site; experiment: in vitro
MCF7 [14] = experiment: cells; details: Homo sapiens, MCF7, 72 h, read-out: pIC50 (converted)
Breast carcinoma cell [15] = details: Homo sapiens, dose 0.5 mg/kg, route po, time 28.0 day
cells [16] = details: Homo sapiens, MCF7, 24 h, read-out: pIC50 (converted)
Breast carcinoma cell [17] = experiment: animal or person; details: Mus musculus, po, 672 h, read-out: INH; remark: listed apart in the source

SMILES	hepatocyte CLint (in vitro [1]) [µL/min/1e6 cells]	pIC50 (Estrogen receptor [2])	other results
C[C@@H]1Cc2c([nH]c3ccccc23)[C@@H](c2cccc(NCCNCCCF)c2)N1CC1(F)COC1	48	7.70	
Cc1c(OCCN2CC(CF)C2)ccc(F)c1[C@@H]1c2[nH]c3ccccc3c2C[C@@H](C)N1C[C@H](C)C(=O)O	2	8.60	logD (physchem [3]): 0.9; fraction unbound (in vitro [4]): 0.3
C[C@@H]1Cc2c([nH]c3ccccc23)[C@@H](c2cc(OCCNCCCF)ccc2F)N1CC(F)(F)F		8.70	
COc1cc(OCCNCCCF)ccc1[C@@H]1c2[nH]c3ccccc3c2C[C@@H](C)N1CC(F)F	5	8.80	
COc1c(OCCNCCCF)cccc1[C@@H]1c2[nH]c3ccccc3c2C[C@@H](C)N1CC1(F)COC1	27		logD (physchem [3]): 3
C[C@@H]1Cc2c([nH]c3ccccc23)[C@@H](c2cc(F)cc(OCCNCCCF)c2)N1CC(F)(F)F	12	8.10	
Cc1c(OCCNCCCF)ccc(F)c1[C@@H]1c2[nH]c3ccccc3c2C[C@@H](C)N1CC(F)(F)CO	19		
C[C@@H]1Cc2c([nH]c3ccccc23)[C@@H](c2ccc(OCCNCCCF)cc2)N1CC1(F)COC1	7	8.30	
C[C@@H]1Cc2c([nH]c3ccccc23)[C@@H](c2cccc(OCCNCCCF)c2)N1CC(F)(F)F	18	8.80	
C[C@@H]1Cc2c([nH]c3ccccc23)[C@@H](c2c(F)cc(OCCN3CC(CF)C3)cc2F)N1CC(C)(C)F			logD (physchem [3]): > 4.4; solubility at 24 h (physchem [5]): < 3 µM
C[C@@H]1Cc2c([nH]c3ccccc23)[C@@H](c2cccc(OCCNCCCF)c2)N1CC1(F)COC1	52	8.20	logD (physchem [3]): 3
Cc1c(OCCNCCCF)ccc(F)c1[C@@H]1c2[nH]c3ccccc3c2C[C@@H](C)N1C[C@@H](C)C(=O)O		8.00	
C[C@@H]1Cc2c([nH]c3ccccc23)[C@@H](c2cccc(OCCCNCCCF)c2)N1CC1(F)COC1	18	7.90	logD (physchem [3]): 2.4; fraction unbound (in vitro [4]): 0.049
Cc1c(OCCNCCCF)cccc1[C@@H]1c2[nH]c3ccccc3c2C[C@@H](C)N1CC(F)(F)F	10		
Cc1c(OCCNCCCF)ccc(F)c1[C@@H]1c2[nH]c3ccccc3c2C[C@@H](C)N1CCC(=O)O	< 1	7.80	logD (physchem [3]): 0.3; pIC50 [6]: < 4.40
Cc1ccc([C@@H]2c3[nH]c4ccccc4c3C[C@@H](C)N2CC(F)(F)F)cc1OCCNCCCF	26	6.60	
C[C@@H]1Cc2c([nH]c3ccccc23)[C@@H](c2c(F)ccc(OCCNCCCF)c2F)N1C[C@H](C)C(=O)O	< 1	8.20	logD (physchem [3]): 0.4
COc1ccc(OCCNCCCF)cc1[C@@H]1c2[nH]c3ccccc3c2C[C@@H](C)N1CC(F)(F)CO	41	8.90	
Cc1c(OCCNCCCF)ccc(F)c1[C@@H]1c2[nH]c3ccccc3c2C[C@@H](C)N1CC(F)(F)F	10	8.90	

SMILES	hepatocyte CLint (in vitro [1]) [µL/min/1e6 cells]	pIC50 (Estrogen receptor [2])	other results
Cc1ccc(OCCNCCCF)c(F)c1[C@@H]1c2[nH]c3ccccc3c2C[C@@H](C)N1CC(F)(F)F	5	8.80	
Cc1c(OCCN(C)CCCF)ncc(F)c1[C@@H]1c2[nH]c3ccccc3c2C[C@@H](C)N1C[C@H](C)C(=O)O		9.00	
COc1ccc(OCCNCCCF)cc1[C@@H]1c2[nH]c3ccccc3c2C[C@@H](C)N1CC(F)F	21	8.70	
C[C@@H]1Cc2c([nH]c3ccccc23)[C@@H](c2cccc(OCCNCCCF)c2F)N1CC(F)(F)F	10	8.80	
Cc1c(OCCNCCCF)ncc(F)c1[C@@H]1c2[nH]c3ccccc3c2C[C@@H](C)N1C[C@@H](C)C(=O)O		8.80	inhibition in vivo at 15 mg/kg (Breast carcinoma cell [7]): 46%; pIC50 (Estrogen receptor [8]): 7.60; IC50 (MCF7 [9]): 39.8 nM; IC50 (cells [10]): 1.26 nM; IC50 (cells [11]): > 31600 nM; pKi (Urotensin-2 receptor): 5.11; pIC50 (Estrogen receptor beta): 7.70; pIC50 (Estrogen receptor [12]): 9.80; pKi [13]: 5.33; IC50 (MCF7 [14]): 6.31 nM; inhibition (Breast carcinoma cell [15]): inactive; IC50 (cells [16]): 15.8 nM; inhibition in vivo at 50 mg/kg (Breast carcinoma cell [17]): 96%
COc1cc(OCCNCCCF)ccc1[C@@H]1c2[nH]c3ccccc3c2C[C@@H](C)N1CC1(F)COC1		8.80	
Cc1c(OCCNCCCF)ccc(F)c1[C@@H]1c2[nH]c3ccccc3c2C[C@@H](C)N1C[C@H](C)C(=O)O		8.50	
C[C@@H]1Cc2c([nH]c3ccccc23)[C@@H](c2cccc(OCCCN3CC(CF)C3)c2)N1CC1(F)COC1	68	7.50	logD (physchem [3]): 3.2; fraction unbound (in vitro [4]): 0.05
Cc1c(OCCN(C)CCCF)ccc(F)c1[C@@H]1c2[nH]c3ccccc3c2C[C@@H](C)N1C[C@H](C)C(=O)O		8.70	
COc1cc(OCCNCCCF)ccc1[C@@H]1c2[nH]c3ccccc3c2C[C@@H](C)N1CC(F)(F)CO	12		pIC50 [6]: 5.24
C[C@@H]1Cc2c([nH]c3ccccc23)[C@@H](c2cccc(N(C)CCNCCCF)c2)N1CC1(F)COC1	210	6.70	logD (physchem [3]): 3
C[C@@H]1Cc2c([nH]c3ccccc23)[C@@H](c2c(F)ccc(OCCNCCCF)c2F)N1CC(F)(F)CO		9.20	
C[C@@H]1Cc2c([nH]c3ccccc23)[C@@H](c2c(F)cc(OCCN3CC(CF)C3)cc2F)N1CC1(F)COC1			solubility at 24 h (physchem [5]): 90 µM (≈ 46.6 µg/mL); fraction unbound (in vitro [4]): 0.031
Cc1c(OCCNCCCF)ncc(F)c1[C@@H]1c2[nH]c3ccccc3c2C[C@@H](C)N1C[C@H](C)C(=O)O		8.90	
Cc1ccc(OCCNCCCF)cc1[C@@H]1c2[nH]c3ccccc3c2C[C@@H](C)N1CC(F)(F)F	23	8.40	logD (physchem [3]): 4
Cc1cc(OCCNCCCF)cc([C@@H]2c3[nH]c4ccccc4c3C[C@@H](C)N2CC(F)(F)F)c1	17	8.30	
C[C@@H]1Cc2c([nH]c3ccccc23)[C@@H](c2ccc(F)c(OCCNCCCF)c2)N1CC(F)(F)F	22	7.60	
COc1ccc(OCCNCCCF)cc1[C@@H]1c2[nH]c3ccccc3c2C[C@@H](C)N1CC1(F)COC1	37	8.70	
Cc1c(OCCN(C)CCCF)ncc(F)c1[C@@H]1c2[nH]c3ccccc3c2C[C@@H](C)N1C[C@@H](C)C(=O)O		8.80	
